The values that follow come from PubChem BioAssay AID1476 (National Center for Advancing Translational Sciences (NCATS), 2009).

The chains behind the UniProt entries cited, without tags or fusion partners. Residues count along the entry.
UniProt P25779, 123-467 limits assumed: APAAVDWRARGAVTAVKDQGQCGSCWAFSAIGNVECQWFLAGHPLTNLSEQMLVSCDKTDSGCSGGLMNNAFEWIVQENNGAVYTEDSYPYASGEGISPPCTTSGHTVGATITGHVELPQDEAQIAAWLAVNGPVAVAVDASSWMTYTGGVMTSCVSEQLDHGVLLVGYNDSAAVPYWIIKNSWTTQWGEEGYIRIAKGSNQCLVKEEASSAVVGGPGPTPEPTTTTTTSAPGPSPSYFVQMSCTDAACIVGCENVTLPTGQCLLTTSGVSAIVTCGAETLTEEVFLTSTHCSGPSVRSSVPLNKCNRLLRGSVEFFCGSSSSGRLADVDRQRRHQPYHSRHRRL

The list shows a part of the results, in another mix than the full data. Some tests of the compounds listed are not included; inactive here does not mean inactive elsewhere. Results filed as inconclusive are left out. The source made the active and inactive calls. The call rests on the fitted dose curve; in most records, active means well fitted inhibition curve with a large enough effect; inconclusive means small, poorly fitted or top-dose-only effect, or effect the other way; inactive means flat fitted curve, though single readings scatter.

The target in the assay is Cruzipain (Trypanosoma cruzi) (UniProt P25779). Kind of assay: qHTS Assay for Promiscuous and Specific Inhibitors of Cruzain (without detergent).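 Further: plate controls were enzyme without inhibitor for no effect and buffer without enzyme for full effect; nearly all actives have a fitted effect of over 40% in size.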 The following applies: purified cruzain, Z-FR-AMC fluorescence, no detergent. In general terms: qHTS replaces the single test concentration by a dilution series.
On to `CN(C)C1(CNC(=O)c2cccc(Cl)c2)CCCCC1`, for which the max response, negative = inhibition was inactive: 0.741%.

As to `CC(C)N1C(=O)CC2(CCN(CCOC(=O)C(O)(c3ccccc3)c3ccccc3)CC2)C1=O`, the max response, negative = inhibition is inactive: -3.6%.

Regarding `CN(C)C1(CNC(=O)c2ccccc2F)CCCCC1`, the max response, negative = inhibition is inactive: 0.892%.

For `CCOc1cccc(C(=O)NCC2(N(C)C)CCCCC2)c1`, the max response, negative = inhibition is inactive: -7.41%.

`CCN1CCCC(OC(=O)C2(O)c3ccccc3C=Cc3ccccc32)C1` (centres undefined): the max response, negative = inhibition is inactive: 3.24%.

For the compound `CN(C)C1(CNC(=O)c2ccccc2[N+](=O)[O-])CCCCC1`, the max response, negative = inhibition is inactive: -15.4%.

In the case of `CN(C)C1CCCC1OC(=O)C(O)(c1ccccc1)c1ccccc1` (centres undefined), the max response, negative = inhibition was inactive: 4.12%.

As for `CCCCOc1ccccc1C(=O)NCC1(N(C)C)CCCCC1`, the max response, negative = inhibition is inactive: -14.1%.

For the compound `COc1ccc(C(=O)NCC2(N(C)C)CCCCC2)cc1Cl`, the max response, negative = inhibition is inactive: -2.03%.

For `Cc1cccc(C(=O)NCC2(N(C)C)CCCCC2)c1`, the max response, negative = inhibition is inactive: -3.08%.

Consider `COc1cc(C(=O)NCC2(N(C)C)CCCCC2)cc(OC)c1OC`, for which the max response, negative = inhibition was inactive: 2.3%.

With `CC(C)Oc1ccc(C(=O)NCC2(N(C)C)CCCCC2)cc1`, the max response, negative = inhibition is inactive: -7.82%.

`CN(C)c1cccc(C(=O)NCC2(N(C)C)CCCCC2)c1`: the max response, negative = inhibition is inactive: 2.28%.

For the compound `COc1cccc(C(=O)NCC2(N3CCOCC3)CCCCC2)c1`, the max response, negative = inhibition is inactive: 3.15%.

As to `CN1CCC[C@H](OC(=O)[C@](O)(c2ccccc2)C2CCCC2)C1`, the max response, negative = inhibition was inactive: 2.97%.

As to `O=C(OC1CN2CCC1CC2)C(CO)(c1ccccc1)c1ccccc1` (centres undefined), the max response, negative = inhibition is inactive: -2.09%.

Turning to `CN1CC[C@H](OC(=O)[C@](O)(c2ccccc2)C2CCCC2)C1`, the max response, negative = inhibition is inactive: -0.993%.

As to `CC(C)COc1ccc(C(=O)NCC2(N(C)C)CCCCC2)cc1`, the max response, negative = inhibition is inactive: -14.4%.

Regarding `C=C(C)C#C[C@@](O)(C(=O)OC1CCN(C)CC1)c1ccccc1`, the max response, negative = inhibition is inactive: 1.06%.
